Measurements as given in PMC2653091 (Journal of medicinal chemistry, 2009).

System: endogenously expressed muscarinic receptors
Conditions: HEK293mNPSR cells, control

## C[N+](C)(C)CCOC(N)=O [Carbachol]
  Carbachol Emax: 305 ± 31 % over basal
  Carbachol pEC50: 5.58
